Source: paper PMC3787104, “A Purine Analog Synergizes with Chloroquine (CQ) by Targeting Plasmodium falciparum Hsp90 (PfHsp90)” (PLoS ONE, 2013)

What was measured:
[1] = biological target: T1, P. falciparum Hsp90 (PfHsp90, PF07_0029) (Plasmodium falciparum, UniProt Q8IC05, R98K); test: SPR (Biacore X), steady-state fit; type: binding
T1 construct: gene PF3D7_0708400

[2] = biological target: P. falciparum Hsp90 (PfHsp90, PF07_0029) (Plasmodium falciparum, UniProt Q8IC05); test: SPR (Biacore X), steady-state […] fit; also full-length ATPase inhibition IC50 […]; type: binding; design: gene PF3D7_0708400; full length also tested in ATPase assay

SMILES: CC(C)NCCCn1c(Sc2cc3c(cc2I)OCO3)nc2c(N)ncnc21 [PU-H71]
- Kd [1]: 268 ± 55.7 µM
- Kd [2]: 70.8 ± 0.006 µM
